Screening data as filed in PubChem BioAssay.
CAL PDZ FP-1 = inhibitors of human CAL PDZ peptide binding. inhibition, % at 20 µM. 330,000 tested, 0.02% active. purified CAL PDZ, TMR-peptide fluorescence polarization, 1 h;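 active = highest replicate inhibition of at least 40%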;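 note: plate controls were DMSO neutral control wells for no effect and unlabeled competitor peptide control wells for full effect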
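Material: tagged CAL PDZ protein CerCALP, purified; buffer or medium: sodium phosphate/NaCl buffer pH 7.4 with TCEP, IgG, Thesit; also added: fluorescent TMR peptide probe; schedule: 1 h incubation at room temperature before polarization reading; technique: fluorescence polarization from S- and P-plane intensities, G-factor corrected; control set: unlabelled peptide and DMSO controls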
ARNT TACC3 PPI = disrupts binding between human ARNT and TACC3; Q9Y6A5; AlphaScreen His-ARNT PAS-B/GST-TACC3 binding, luminescence; TACC3 fragment carries E629A point mutation; inhibition, % at 9.99 µM; 390,000 tested, 0.66% active; AID 623870;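 active = mean inhibition of replicates at least 50% and at least half of replicates each reaching 50%; inconclusive = half or more replicates reach 50% but mean below 50%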;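 note: 0% = complete ARNT plus TACC3 wells and 100% = ARNT alone without TACC3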
CAL PDZ FP-2 = inhibitors of human CAL PDZ peptide binding; purified CAL PDZ, TMR-peptide fluorescence polarization, 1 h; inhibition, % at 24.9 µM; 300,000 tested, 0.92% active; AID 602252;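 active = mean inhibition of at least 30% with at least half of replicates also reaching 30%; inconclusive = no clear call, values can overlap the other calls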;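 note: 0% = DMSO neutral control and 100% = excess unlabeled competitor peptide PRC23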
Yeast UUG start = modulators of start codon recognition fidelity in yeast | S. cerevisiae UUG-firefly luciferase reporter, luminescence/redox ratio | activity score, % at 18.7 µM | 350,000 tested, 0.13% active;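 active = replicate mean at a twofold rise or more, about +100% in these data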;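 also: firefly luciferase made from a UUG start codon reports start codon fidelity; reporter light over untreated wells divided by growth signal over untreated wells; some hits fall short of that in this replicate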
Vif inh = blocks HIV Vif function. HEK293T cells, Vif self-association by quenched fluorescence, imaging, 24 h. inhibition, % at 7.49 µM. 340,000 tested, 0.35% active. AID 602346; in the data active = inhibition above about 50%, passing the limit was not always enough; inconclusive = no clear call, values can overlap the other calls; inactive = below about 31%
PglD inh = blocks C. jejuni PglD acetyltransferase activity | purified PglD enzyme, DTNB colorimetric CoA detection | inhibition, % at 12.5 µM | 360,000 tested, 0.098% active; in the data active = inhibition above about 16%, passing the limit was not always enough; inconclusive = no clear call, values can overlap the other calls
* = called active by the depositor; u = inconclusive; x = no result. Compounds with a hit are over-represented: about 1.6% of the library has one in this group of screens.

SMILES | CAL PDZ FP-1 | ARNT TACC3 PPI | CAL PDZ FP-2 | Yeast UUG start | Vif inh | PglD inh
COc1cc(C(C)=O)ccc1OCC(=O)NCC1(N2CCCCC2)CCCCC1 | -1.6 | -0.6 | -2.5 | x | 51.0* | x
O=C(c1ccc(-c2ccccc2)cc1)N1CCN(c2ccccn2)CC1 | -0.6 | -5.7 | 78.2* | 4.5 | 11.4 | -1.4
Cc1ccc(C(=O)N2CCN(c3ccccn3)CC2)cc1C | 9.4 | -2.0 | -2.4 | -17.7 | 11.0 | 1.9
Cc1noc(C)c1S(=O)(=O)N(C)C[C@H]1OCCCC[C@H](C)Oc2ccc(NC(=O)NC3CCCCC3)cc2C(=O)N([C@H](C)CO)C[C@@H]1C | x | -7.7 | x | 0.0 | x | 0.0
CCOc1ccc(/C=C2\CCC(C3CCCC3)C2=O)cc1OC (stereo not drawn) | -2.7 | -11.0 | 3.9 | x | -13.7 | x
COc1cc(C=C2CCCC(=Cc3ccc(OCC4CO4)c(OC)c3)C2=O)ccc1OCC1CO1 (stereo not drawn) | x | x | x | -14.9 | 61.9* | -8.1
CSC(=S)NN=C(C)c1cccc(C)n1 | -0.1 | 58.9* | 2.8 | x | 3.7 | x
COc1cc(C2C3=C(COC3=O)Oc3cc4c(cc32)OCO4)cc(OC)c1O (stereo not drawn) | -1.9 | 8.6 | -9.0 | x | 60.2* | x
COc1cc(C2C3=C(COC3=O)Oc3cc4c(cc32)OCO4)cc(OC)c1OC (stereo not drawn) | 1.2 | -3.9 | -2.9 | x | 0.3 | x
C[C@@H]1CN([C@H](C)CO)C(=O)c2cc(NC(=O)C3CCCCC3)ccc2O[C@@H]1CN(C)Cc1ccc(C(=O)O)cc1 | x | -0.4 | x | 0.4 | x | -2.3
Cc1n[nH]c(=O)nc1N/N=C/c1ccco1 | -2.8 | 53.0* | -5.1 | -29.1 | 0.8 | x
Cc1ccc(Nc2nc(=O)[nH]nc2C)cc1 | -0.6 | -6.6 | x | 0.5 | x | 6.0
Cc1n[nH]c(=O)nc1Nc1ccc(O)cc1 | -0.3 | 1.1 | x | -13.4 | 65.9* | 3.1
CCCN1C[C@@H](C)[C@@H](OC)CN(C)C(=O)c2ccc(NS(=O)(=O)c3cn(C)cn3)cc2OC[C@H]1C | x | -2.8 | x | x | x | -2.6
C[C@H](CO)N1C[C@H](C)[C@H](CN(C)C(=O)Cc2ccccc2)OCCCC[C@H](C)Oc2ccc(NC(=O)c3ccncc3)cc2C1=O | x | -13.1 | x | 4.1 | x | -0.5
COc1ccc(CN(C)C[C@@H]2Oc3ccc(NS(=O)(=O)c4ccc(C)cc4)cc3C(=O)N([C@@H](C)CO)C[C@H]2C)cc1 | x | -0.1 | x | -0.1 | x | 1.1
CCCC#Cc1ccc2c(c1)O[C@H](CN(C)C(=O)C1CC1)[C@H](C)CN([C@H](C)CO)S2(=O)=O | x | 49.9* | x | 25.7 | x | 1.2
CCCC#Cc1ccc2c(c1)O[C@@H](CN(C)C(=O)C1CC1)[C@@H](C)CN([C@H](C)CO)S2(=O)=O | x | 11.1 | x | 9.6 | x | 0.9
O=C1c2cccc3c([N+](=O)[O-])ccc(c23)C(=O)N1c1nccs1 | -1.1 | -4.9 | x | -22.9 | 67.0* | -0.1
O=C1c2cccc3c([N+](=O)[O-])ccc(c23)C(=O)N1c1ccccn1 | 1.1 | -2.1 | x | -16.2 | 112.9* | 3.4
O=C1c2cccc3c([N+](=O)[O-])ccc(c23)C(=O)N1c1ccc(Cl)cn1 | -1.7 | 3.4 | x | 2.6 | -2.2 | -1.3
O=C1c2cccc3cccc(c23)C(=O)N1c1nccs1 | x | -11.3 | -4.6 | -13.4 | 2.9 | 4.2
C[C@@H]1CN([C@@H](C)CO)C(=O)c2cc(NC(=O)c3ccccc3)ccc2O[C@@H](C)CCCCO[C@@H]1CN(C)C(=O)c1ccccc1 | x | -1.1 | x | x | x | -4.0
CCCS(=O)(=O)Nc1cccc(-c2ccc3nnc(C)n3n2)c1 | -2.4 | x | -1.1 | x | -7.5 | x
Cc1nnc2ccc(-c3cccc(NS(=O)(=O)c4cc(F)ccc4F)c3)nn12 | -3.4 | -1.5 | -3.5 | -18.4 | 70.7* | -4.4

Full records, quoted from the list. Order of screens: CAL PDZ FP-1 | ARNT TACC3 PPI | CAL PDZ FP-2 | Yeast UUG start | Vif inh | PglD inh
`Cc1ccc(C(=O)N2CCN(c3ccccn3)CC2)cc1C` is listed as 9.4 | -2.0 | -2.4 | -17.7 | 11.0 | 1.9
`O=C1c2cccc3c([N+](=O)[O-])ccc(c23)C(=O)N1c1ccc(Cl)cn1` is listed as -1.7 | 3.4 | x | 2.6 | -2.2 | -1.3
`CCCS(=O)(=O)Nc1cccc(-c2ccc3nnc(C)n3n2)c1` is listed as -2.4 | x | -1.1 | x | -7.5 | x
`CCCN1C[C@@H](C)[C@@H](OC)CN(C)C(=O)c2ccc(NS(=O)(=O)c3cn(C)cn3)cc2OC[C@H]1C` is listed as x | -2.8 | x | x | x | -2.6
`COc1cc(C2C3=C(COC3=O)Oc3cc4c(cc32)OCO4)cc(OC)c1OC` (stereo not drawn) is listed as 1.2 | -3.9 | -2.9 | x | 0.3 | x

(list continues)
SMILES | CAL PDZ FP-1 | ARNT TACC3 PPI | CAL PDZ FP-2 | Yeast UUG start | Vif inh | PglD inh
Cc1nnc2ccc(-c3cccc(NS(=O)(=O)c4ccccc4[N+](=O)[O-])c3)nn12 | -1.3 | 0.0 | x | -23.0 | u | 4.8
Cc1nnc2ccc(-c3cccc(NS(=O)(=O)c4ccccc4Cl)c3)nn12 | -2.3 | -3.6 | -1.5 | -16.9 | 80.5* | -1.1
CCCNC(=O)C[C@@H]1CC[C@@H]2[C@H](COc3ccc(NC(=O)c4cccc(OC)c4)cc3C(=O)N2C)O1 | x | -3.8 | x | 22.2 | x | 3.5
COc1cccc(NC(=O)N[C@H]2C=C[C@H](CC(=O)Nc3ccccc3)O[C@@H]2CO)c1 | x | -6.5 | x | 3.9 | x | 0.4
COC(=O)c1c(CC[C@@H](CO)NC(=O)N[C@@H](Cc2ccccc2)Cn2cc(C3(O)CCCC3)nn2)oc(C(=O)N2CCOCC2)c1C(=O)OC | x | 0.8 | x | -11.7 | x | 3.6
CC(NC(=O)/C(C#N)=C/c1ccc(C(=O)O)cc1)c1ccccc1 (stereo not drawn) | 0.3 | -5.3 | 9.6 | -10.9 | 1.0 | 0.0
COc1cc(/C=C(/C#N)C(=O)NC(C)c2ccccc2)cc(OC)c1O (stereo not drawn) | -3.4 | x | -11.7 | -2.4 | 54.0* | -3.4
Cc1noc(C)c1NC(=O)Nc1ccc2c(c1)C(=O)N([C@@H](C)CO)C[C@H](C)[C@H](CN(C)C(=O)C1CCCCC1)OCCCC[C@@H](C)O2 | x | -7.3 | x | 16.9 | x | -0.1
CCNc1nc(C(=O)O)nc(N2CCOCC2)n1 | -1.2 | 79.3* | -2.0 | x | 4.3 | x
CCOCCCNC(=O)CCCOc1ccccc1 | -1.2 | -4.9 | 69.7* | -16.2 | 10.8 | 1.8
CCCCOCCCNC(=O)CCCOc1ccccc1 | 0.8 | -2.5 | -4.9 | x | 0.7 | x
O=C(CCCC1=NS(=O)(=O)c2ccccc2N1)NCCc1ccc(Cl)cc1 | -1.3 | 2.6 | -6.4 | 0.7 | 5.7 | 0.3
CCOCCCNC(=O)CCCC1=NS(=O)(=O)c2ccccc2N1 | -2.9 | active | x | 2.3 | 2.1 | -8.3
C[C@@H]1CN([C@H](C)CO)C(=O)c2cccc(N(C)C)c2O[C@@H]1CN(C)Cc1ccc(C(=O)O)cc1 | x | -4.0 | x | -10.4 | x | -0.3
COc1ccc(S(=O)(=O)N(C)C[C@H]2Oc3c(NS(C)(=O)=O)cccc3C(=O)N([C@@H](C)CO)C[C@H]2C)cc1 | x | x | x | 4.1 | x | 0.4
CCc1nc2ccccc2n1CC(O)COCC1CC=CCC1 (stereo not drawn) | -0.2 | -0.5 | 43.0* | x | 0.7 | x
O=C(c1ccccc1)N1CCN(CC(O)COCC2CC=CCC2)CC1 (stereo not drawn) | 1.0 | -0.1 | 0.6 | -5.6 | x | -0.1
COc1ccc(S(=O)(=O)Nc2ccc3c(c2)CC(=O)N([C@@H](C)CO)C[C@@H](C)[C@@H](CN(C)Cc2ccc(C(=O)O)cc2)O3)cc1 | x | -2.7 | x | -13.6 | x | 2.4
CCc1ccc(CNC(=O)C2CCCN(c3nnc(C)c4c(C)n(-c5ccccc5)nc34)C2)cc1 (stereo not drawn) | -2.3 | 1.1 | 63.8* | 7.6 | -16.3 | 5.8
COc1ccc(Nc2nc(-c3c(C)nc4ncccn34)cs2)cc1 | 3.6 | 46.1* | -1.0 | x | x | x
COc1ccccc1Nc1nc(-c2c(C)nc3ncccn23)cs1 | 3.0 | 45.2* | 1.0 | -33.5 | -8.2 | -0.6
